Our source for the IC50 values is patent US10124004B2, “Pyrido[3,4-d]pyrimidine derivative and pharmaceutically acceptable salt thereof” (Teijin Pharma Limited, priority 2015, dated 2018).

Sequences of proteins named here, by UniProt entry; tags and fusion partners are left off.
UniProt P11802, whole entry: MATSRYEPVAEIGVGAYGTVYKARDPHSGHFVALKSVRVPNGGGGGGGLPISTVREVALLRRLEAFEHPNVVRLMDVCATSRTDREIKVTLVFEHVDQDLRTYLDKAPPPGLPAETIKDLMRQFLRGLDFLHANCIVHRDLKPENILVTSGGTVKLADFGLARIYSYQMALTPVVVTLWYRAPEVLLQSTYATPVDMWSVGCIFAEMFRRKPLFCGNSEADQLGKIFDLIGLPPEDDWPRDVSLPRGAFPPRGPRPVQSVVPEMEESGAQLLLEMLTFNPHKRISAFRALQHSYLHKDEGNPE
UniProt P30281, whole entry partner: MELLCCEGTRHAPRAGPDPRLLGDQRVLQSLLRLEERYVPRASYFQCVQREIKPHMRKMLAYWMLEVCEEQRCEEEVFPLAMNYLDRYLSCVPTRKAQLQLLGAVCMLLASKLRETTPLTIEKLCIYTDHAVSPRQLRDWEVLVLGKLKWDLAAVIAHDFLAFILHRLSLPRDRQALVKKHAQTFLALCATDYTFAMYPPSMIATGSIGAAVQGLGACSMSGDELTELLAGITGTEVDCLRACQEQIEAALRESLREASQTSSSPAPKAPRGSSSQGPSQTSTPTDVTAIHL

For one experiment, the target named is CDK4/cyclin D3 (Homo sapiens, UniProt P11802). As to the kind of experiment: Human CDK4/cyclin D3 inhibitory activity (QS S Assist CDK4/Cyclin D3_FP Kit, IMAP fluorescence polarization). The conditions noted are these: read-out: CDK4 Activity symbol. How it is done:
Human CDK4/Cyclin D3 Inhibitory Activity
Each compound was analyzed for CDK4/cyclin D3 inhibitory activity with an assay kit (QS S Assist CDK4/Cyclin D3_FP Kit, available from Carna Biosciences, Inc.). This assay kit determines kinase activity on the basis of the IMAP technology by Molecular Devices. Specifically, the kinase activity is determined through quantification of a variation in fluorescent polarization caused by binding of a kinase-phosphorylated fluorescent substance to an IMAP-binding reagent.
Each solution was prepared with the 10× assay buffer attached to the kit or a separately prepared assay buffer having the same composition as the assay buffer attached to the kit. An assay buffer was prepared by 10-fold dilution of the 10× assay buffer with distilled water. The assay buffer contains 20 mM HEPES (pH 7.4), 0.01% Tween20, and 2 mM dithiothreitol. A test compound solution was prepared by dilution of the test compound with dimethyl sulfoxide (DMSO) to a concentration 100 times higher than the final concentration and then 25-fold dilution with the assay buffer to a concentration four times higher than the final concentration. An ATP/substrate/Metal solution was prepared by five-fold dilution of the 5×ATP/substrate/Metal solution attached to the kit with the assay buffer. An enzyme solution was prepared by dilution of the CDK4/cyclin D3 attached to the kit with the assay buffer to a concentration twice higher than the final concentration (final concentration of CDK4/cyclin D3:12.5 to 25 ng/well). A detection reagent was prepared by five-fold dilution of each of 5× IMAP-binding buffer A and 5×IMAP-binding buffer B with distilled water, mixing of IMAP-binding buffer A with IMAP-binding buffer B at a ratio of 85:15, and 400-fold dilution of the IMAP-binding reagent with the mixed buffer.
The test compound solution (5 μL/well) and the ATP/substrate/Metal solution (5 μL/well) were added to a 384-well plate, and the enzyme solution or the assay buffer (10 μL/well) was added to the plate (total amount of the reaction mixture: 20 μL/well) for initiation of enzymatic reaction. […] Subsequently, fluorescent polarization was determined with a microplate reader at an excitation wavelength of 485 nm and an emission wavelength of 535 nm.
The percent inhibition of enzyme activity was calculated for each test compound (note: enzyme activity=100% in the case of addition of the enzyme solution and addition of DMSO instead of the test compound solution, whereas enzyme activity=0% in the case of addition of the assay buffer instead of the enzyme solution, and addition of DMSO instead of the test compound solution). […]
(In general: Fluorescence polarisation rises when a labelled molecule tumbles more slowly, as on binding a larger partner.)

The target in the next experiment is CDK2/cyclin A2 (Homo sapiens, UniProt P24941). As to the kind of experiment: Human CDK2/cyclin A2 inhibitory activity (QS S Assist CDK2/Cyclin A2_FP Kit, IMAP fluorescence polarization). The following applies: read-out: CDK2 Activity symbol. How it is done:
Human CDK2/Cyclin A^2 Inhibitory Activity
Each compound was analyzed for CDK2/cyclin A2 inhibitory activity with an assay kit (QS S Assist CDK2/Cyclin A2_FP Kit, available from Carna Biosciences, Inc.). This assay kit determines kinase activity on the basis of the IMAP technology by Molecular Devices. Specifically, the kinase activity is determined through quantification of a variation in fluorescent polarization caused by binding of a kinase-phosphorylated fluorescent substance to an IMAP-binding reagent.
An assay buffer was prepared by 10-fold dilution of the 10× assay buffer attached to the kit with distilled water, and each solution was prepared with the assay buffer. The assay buffer contained 20 mM HEPES (pH 7.4), 0.01% Tween 20, and 2 mM dithiothreitol. A test compound solution was prepared by dilution of the test compound with dimethyl sulfoxide (DMSO) to a concentration 100 times higher than the final concentration and then 25-fold dilution with the assay buffer to a concentration four times higher than the final concentration. An ATP/substrate/Metal solution was prepared by five-fold dilution of the 5×ATP/substrate/Metal solution attached to the kit with the assay buffer. An enzyme solution was prepared by dilution of the CDK2/cyclin A2 attached to the kit with the assay buffer to a concentration twice higher than the final concentration (final concentration of CDK2/cyclin A2: 2.5 ng/well). A detection reagent was prepared by five-fold dilution of 5×IMAP-binding buffer A with distilled water and 400-fold dilution of the IMAP-binding reagent with the diluted buffer.
The test compound solution (5 μL/well) and the ATP/substrate/Metal solution (5 μL/well) were added to a 384-well plate, and the enzyme solution or the assay buffer (10 μL/well) was added to the plate (total amount of the reaction mixture: 20 μL/well) for initiation of enzymatic reaction. […] The reaction was performed at room temperature for 60 minutes, and the detection reagent (60 μL/well) was then added to the plate, followed by further reaction for 30 minutes at room temperature under light shielding conditions. Subsequently, fluorescent polarization was determined with a microplate reader at an excitation wavelength of 485 nm and an emission wavelength of 535 nm.
The percent inhibition of enzyme activity was calculated for each test compound (note: enzyme activity=100% in the case of addition of the enzyme solution and addition of DMSO instead of the test compound solution, whereas enzyme activity=0% in the case of addition of the assay buffer instead of the enzyme solution and addition of DMSO instead of the test compound solution). The percent inhibition of enzyme activity was fitted to a dose-response curve, to determine a 50% inhibitory concentration against CDK2/cyclin A2. […]

Setting [1] is: 50% inhibitory concentration against CDK4/cyclin D3, given as class symbol.
The mark [2] stands for this setting: 50% inhibitory concentration against CDK2/cyclin A2, given as class symbol.
[3] abbreviates: Human CDK4/cyclin D3 inhibitory activity.
[4] abbreviates: Human CDK2/cyclin A2 inhibitory activity.

pIC50: −log10 of the molar value. Read-outs that look alike come from different tables or passages of the source. Where only a bound is given, the exact number is not on record here.

On to `C[C@@H](O)c1cc2cnc(Nc3ccc(CN4CCC(O)CC4)cn3)nc2c(NCC2CC2)n1`, for which the pIC50 on CDK4/cyclin D3 (setting [1]) was above 8.00; on CDK2/cyclin A2 (setting [2]), below 7.00.
`CC(O)c1cc2cnc(Nc3ccc(N4CCNCC4)cn3)nc2c(NC2COC2)n1` (centres unmarked): the pIC50 on CDK4/cyclin D3 (setting [3]) and on CDK2/cyclin A2 (setting [4]) was below 7.00 each time.
Turning to `CO[C@H](C)c1cc2cnc(Nc3ccc(CN4CCNCC4)cn3)nc2c(N[C@H]2CCOC2)n1`, the results for the pIC50 at CDK4/cyclin D3 (setting [3]) and at CDK2/cyclin A2 (setting [4]) were above 8.00 and below 7.00, respectively.
For the compound `CCN(CC)Cc1ccc(Nc2ncc3cc([C@@H](C)O)nc(NC(C)C)c3n2)nc1`, the pIC50 on CDK4/cyclin D3 (setting [1]) was above 8.00; on CDK2/cyclin A2 (setting [2]), below 7.00.
